The values below come from PubChem BioAssay AID2806 (Sanford-Burnham Center for Chemical Genomics, 2010).

Only a part is listed here, and it is no random draw. Calls of active or inactive are those of the source.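 Rule for the calls: active = inhibition of at least 40% at 10 µM in the primary screen; inactive = the rest.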

In the test the test system is intestinal alkaline phosphatase [Mus musculus]. Put plainly: mouse intestinal phosphatase enzyme inhibition – biochemical, luminescence, uHTS, primary screen (AID 2806).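 Note: plate controls were DMSO with enzyme for no effect and no enzyme wells for full effect.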 The note with it: purified mouse IAP, CDP-Star luminescence, 30 min; at 10 µM; stronger effect = higher value.
For orientation: inhibition means the drop in the measured response relative to a control, in per cent. Regarding `CP(=O)(Nc1ccc(SC(F)(F)F)cc1)Oc1ccccc1` (configuration not stated), the inhibition is inactive: -3%.

On to `O=C(O)c1cccc(Nc2c([N+](=O)[O-])cc([N+](=O)[O-])cc2[N+](=O)[O-])c1`, for which the inhibition was inactive: 1.1%.

Turning to `CC1=NCCc2c1[nH]c1ccccc21.O=[N+]([O-])c1cc([N+](=O)[O-])c(O)c([N+](=O)[O-])c1`, the inhibition is inactive: 14.9%.

Take `COc1ccccc1OP(C)(=O)Nc1cccc(Br)c1` (configuration not stated): the inhibition is inactive: 4.8%.

For the molecule `Cc1cc(C)cc(OP(C)(=O)Nc2ccc(C)cc2C)c1` (configuration not stated), the inhibition is inactive: -6.6%.

Turning to `CCOC(=O)c1ccc(NP(C)(=O)Oc2cc(C)cc(C)c2)cc1` (configuration not stated), the inhibition was inactive: 18.5%.

Turning to `Cc1cc(C)cc(OP(C)(=O)Nc2ccccn2)c1` (configuration not stated), the inhibition was inactive: 8.7%.

For the molecule `CP(=O)(Nc1cccc(Br)c1)Oc1ccccc1` (configuration not stated), the inhibition is inactive: -20.2%.

Consider `Cc1ccc(C)c(NP(C)(=O)Oc2ccccc2)c1` (configuration not stated), for which the inhibition was inactive: 3.5%.

For `CCN(CC)CCCOC(=O)C(O)(c1ccccc1)c1ccccc1`, the inhibition is inactive: 4%.

In the case of `O=[N+]([O-])c1cc([N+](=O)[O-])c(Nc2cccnc2)c([N+](=O)[O-])c1`, the inhibition is inactive: 32%.

Turning to `Cc1cccc(C)c1OP(C)(N)=O` (configuration not stated), the inhibition was inactive: 3.1%.

On to `CC(C)(C)c1ccc(OP(C)(=O)Nc2ccc(SC(F)(F)F)cc2)cc1` (configuration not stated), for which the inhibition was inactive: -5.3%.

Consider `CCOC(=O)c1ccc(NP(C)(=O)Oc2ccccc2)cc1` (configuration not stated), for which the inhibition was inactive: 2.9%.

As to `Cc1ccc(NP(C)(=O)Oc2ccccc2)c(C)c1` (configuration not stated), the inhibition is inactive: -3.9%.

Take `COc1ccccc1OP(C)(=O)Nc1ccc(C)cc1` (configuration not stated): the inhibition is inactive: 5.4%.

`COc1ccc(OP(C)(=O)Nc2cccc(F)c2)cc1` (configuration not stated): the inhibition is inactive: 3.5%.

`COc1ccccc1OP(C)(=O)Nc1cc(Cl)ccc1C` (configuration not stated): the inhibition is inactive: 8.7%.

For `Cc1cc(C)cc(OP(C)(N)=O)c1` (configuration not stated), the inhibition was inactive: -13.5%.

As to `CP(=S)(Nn1cnnc1)Oc1ccccc1` (configuration not stated), the inhibition is inactive: -4.6%.

With `COc1ccccc1OP(C)(=O)Nc1ccccc1` (configuration not stated), the inhibition is inactive: -11%.

`CP(=O)(Nc1ccccc1Br)Oc1ccccc1` (configuration not stated): the inhibition is inactive: -2%.

For `CP(=O)(Oc1ccccc1)OC(c1ccccc1)C(F)(F)F` (configuration not stated), the inhibition is inactive: 6%.

Take `Cc1cccc(C)c1OP(C)(=O)Nc1ccc(SC(F)(F)F)cc1` (configuration not stated): the inhibition is inactive: -16.4%.

For the molecule `CP(=O)(Nc1ccc(SC(F)(F)F)cc1)Oc1ccc(Cl)cc1` (configuration not stated), the inhibition was inactive: 0.8%.

Take `Cc1cc(C)cc(OP(C)(=O)Nc2ccc(SC(F)(F)F)cc2)c1` (configuration not stated): the inhibition was inactive: 4.5%.

For `CP(=O)(NC(=O)Nc1ccccc1)Oc1ccccc1` (configuration not stated), the inhibition is inactive: -8.3%.

In the case of `CCc1ccc(OP(C)(=O)N2CCN(c3ccc([N+](=O)[O-])cc3)CC2)cc1` (configuration not stated), the inhibition is inactive: 4.6%.

For `CCOP(C)(=S)SCC(=O)NC(C)C(=O)O` (configuration not stated), the inhibition was inactive: 2.6%.

Consider `CCOC(=O)c1ccc(NP(C)(=O)Oc2ccc(OC)cc2)cc1` (configuration not stated), for which the inhibition is inactive: 5.3%.

Turning to `O=[N+]([O-])c1cc([N+](=O)[O-])c(O)c([N+](=O)[O-])c1.c1ccc(Oc2ccncc2)cc1`, the inhibition was inactive: -15.4%.

As for `CP(=O)(Nc1ccccn1)Oc1ccc(Cl)cc1` (configuration not stated), the inhibition was inactive: -2.2%.
